Assay [1] has as its system KRAS G12D mutant AGS human gastric adenocarcinoma cells. Nature of the assay: Proliferation of KRAS G12D mutant AGS cells, CTG assay, 3 days (Activity Example 1). As for the experimental part:
AGS cells (adherent) (Nanjing Kebai Biotechnology Co., Ltd., Cat# CBP60476) were cultured at 37 °C, 5% CO2, 95% humidity (3000/well, RPMI-1640 + 10% FBS (GIBCO, Cat#10099-141)).
Cells in the logarithmic growth phase were harvested and counted using a platelet counter. Cell viability was assessed by trypan blue exclusion, ensuring >90% viability. The cell concentration was adjusted; 90 µL of cell suspension was added to each well of a 96-well plate (Corning®, Cat# 3603). The cells in the 96-well plate were cultured at 37 °C, 5% CO2 (Thermo Scientific, Model 3100 Series).
Drug dilution and addition: a) Single-point inhibition rate assay: 10x drug solutions were prepared, and 10 µL drug solution was added each well of 96-well plate inoculated with cells to achieve a working concentration of 1 µM, with three replicate wells per drug concentration; b) Preparation of drug for IC50 assay: 10x drug solutions were prepared, and 10 µL drug solution was added each well of 96-well plate inoculated with cells to achieve a top working concentration of 10 µM with 3.16-fold serial dilution (9 concentrations), three replicate wells per drug concentration. The cells in the drug-treated 96-well plate were cultured at 37 °C under 5% CO2 for 3 days, followed by CTG assay (CellTiter-Glo® Luminescent Cell Viability Assay, Promega, Cat# G7572).
CTG reagent was thawed, and cell plates were equilibrated to room temperature for 30 minutes. An equal volume of CTG solution was added to each well, and the plates were shaken on an orbital shaker for 5 minutes to lyse the cells. The plates were placed at room temperature for 20 minutes to stabilize the luminescent signal, and luminescence was read (SpectraMax Multi-Mode Microplate Reader, MD, 2104-0010A). Data were analyzed using GraphPad Prism 7.0 software, and dose-response curves were fitted by nonlinear S-curve regression to calculate IC50 values. [formula]

Assay [2] relates to HPAC cells (carrying KRas G12D mutant protein). Nature of the assay: Human pancreatic cancer HPAC subcutaneous xenograft efficacy study (Activity Example 3). The note with it: 50 mpk, PO, BID × 21, Day 20; vehicle control 771. As for the experimental part: 6-8 week old female NOD/SCID mice (Jiangsu Jicui Yaokang Biotechnology Co., Ltd.) were subcutaneously inoculated on the right posterior back with 1×10^7 HPAC cells (carrying KRas G12D mutant protein, ATCC) in 0.1 mL volume. When tumors grew to an average volume of 150 mm^3, mice were randomized into groups based on tumor size and mouse body weight. The day of dosing was considered Day 0. Test compounds were administered once daily via tail vein injection or oral gavage, 5 mice per group, at a dose of 50 mg/kg. The control group was administered the same volume of vehicle control via tail vein injection or oral gavage.
Body weight and tumor size were measured twice weekly during the experiment. The formula for tumor volume was calculated as: Tumor volume (mm^3) = 0.5 × (tumor long diameter × tumor short diameter^2). Mean tumor growth inhibition TGI% = [(mean tumor volume in control group - mean initial tumor volume in control group) - (mean tumor volume in treatment group - mean initial tumor volume in treatment group)] / (mean tumor volume in control group - mean initial tumor volume in control group).

The subject of assay [3] is GP2D cells. Briefly: KRAS-G12D mutant human colon cancer GP2D subcutaneous xenograft, drug P unit compounds (Activity Example 4). The note with it: 10 mg/kg, twice daily by oral gavage; for Tumor Volume (Day 21): vehicle control 1026. As for the experimental part:
GP2D cells (Nanjing Kebai Biotechnology Co., Ltd.) were cultured in culture medium containing DMEM and 10% FBS, and cells in logarithmic growth phase were collected and resuspended in PBS to an appropriate concentration for subcutaneous tumor inoculation in BALB/c female nude mice (nude, purchased from Jiangsu Ji Yao Kang Biotechnology Co., Ltd.). Experimental mice were subcutaneously inoculated on the right posterior back with GP2D cells at a density of 1 × 10^7 cells per mouse, with the cells resuspended in a 1:1 PBS and Matrigel (inoculation volume: 0.1 mL). When average tumor volume reached ~150 mm^3, mice were randomized based on tumor size and body weight. Dosing began immediately after grouping; the day of dosing was considered Day 0. Compounds were administered twice daily by oral gavage at a dose of 10 mg/kg or vehicle control (0.5% Tween 80 + 99.5% (0.5% MC (400cp))). Body weight and tumor size were measured twice weekly during the experiment. [formula] [formula]

Assay [4] deals with A375 (WT). Nature of the assay: Proliferation of KRAS mutant cells, drug P compounds (Activity Example 6). As for the experimental part: (§1) A sterile 1% methylcellulose 3D culture medium was prepared in advance. Cells in the logarithmic growth phase were harvested, and cell counting and viability assessment were performed using a Countstar automatic cell counter based on the classical trypan blue staining principle, ensuring that cell viability was above 90%. Cell concentrations for GP2D, HPAC, AsPC-1, KP-4, and Panc 04.03 were adjusted to a final methylcellulose (Sigma, 9004-67-5) concentration of 0.65%, mixed, and allowed to stand until no visible air bubbles. 80 µL of cell suspension (1000-2000 cells) was added to a 96-well plate (Corning, 3603). The cells in the 96-well plate were cultured overnight at 37 °C, 5% CO2, and 95% humidity (Thermo Scientific, Model 371 Series).
(§2) Preparation of drug for IC50 assay: 10 mM DMSO stock solutions of each compound were prepared. First dilution in DMSO to 5 mM, then 3-fold serial dilution to 9 concentrations to prepare DMSO solutions of different concentrations for each compound. Second 1:100 dilution (phosphate-buffered saline DPBS, Corning, 21-031-CVC) was used to prepare a 5x dilution of each compound, using complete medium as solvent. Finally, 20 µL of each compound dilution was added per well to the cell-seeded plates, with a final top concentration of 10 µM, 9 concentrations, 3-fold dilution, two replicate wells per drug concentration.
(§3) The treated plates were incubated at 37 °C, 5% CO2 for 120 hours, followed by CTG analysis (CellTiter-Glo® Luminescent Cell Viability Assay, Promega, Cat# G7573). CTG reagent was thawed, and cell plates were equilibrated to room temperature for 30 minutes. 75 µL of CTG solution was added per well. Plates were shaken on an orbital shaker for 5 minutes to lyse cells, then placed at room temperature for 20 minutes to stabilize the luminescent signal. Luminescence was read (EnVision Multimode Plate Reader, PerkinElmer #2105). Data were analyzed using GraphPad Prism 9.0 software, and dose-response curves were fitted by nonlinear S-curve regression to calculate IC50 values (nM). Cell viability (%) = (Lumtest drug−Lummedium control)/(Lumvehicle control−Lummedium control) × 100% [formula]
(§4) Following essentially the same experimental method and procedure as Activity Example 5, the inhibitory effect of representative drug P unit compounds of ADC of the present disclosure on proliferation of KRAS mutant cells was tested in cell lines H358, H727, A549, GP2D, MKN1 (purchased from Nanjing Kebai Biotechnology Co., Ltd.) and cell lines A375 and HCT116 (purchased from Cell Bank of the Chinese Academy of Sciences): […]

Assay [5] deals with A549 (G12S). The assay is described as above. As for the experimental part: as §1, §2, §3, §4
Assay [6] has as its system GP2D (G12D). Described as above. As for the experimental part: as §1, §2, §3, §4
Assay [7] relates to H358 (G12C). The description is as above. As for the experimental part:
as §1, §2, §3, §4

In assay [8] the test system is H727 (G12V). Described as above. As for the experimental part: as §1, §2, §3, §4
The subject of assay [9] is HCT116 (G13D). The description is as above. As for the experimental part:
as §1, §2, §3, §4

The test system of assay [10] is MKN1 (WT, amp). Described as above. As for the experimental part:
as §1, §2, §3, §4

Assay [11] deals with GP2D cells. Briefly: KRAS-G12D mutant human colon cancer GP2D subcutaneous xenograft, ADC compounds (Activity Example 8). The note with it: 0.15 mg/kg (payload P3 equivalent in 1), dosing D0,7,14; Day 21 (Figure 6 study). As for the experimental part: GP2D cells (Nanjing Kebai Biotechnology Co., Ltd.) were cultured in culture medium containing DMEM and 10% FBS, and cells in logarithmic growth phase were collected and resuspended in PBS to an appropriate concentration mixed 1:1 with matrigel for subcutaneous tumor inoculation on the right posterior back of BALB/c female mice (purchased from Jiangsu Jicui Yaokang Biotechnology Co., Ltd.). Mice were inoculated subcutaneously on the right posterior back with 1×10^7 GP2D cells per mouse in 0.1 mL volume. When average tumor volume reached ~150 mm^3, mice were randomized into groups based on tumor size and body weight. The day of dosing was considered D0. Compounds were administered via tail vein injection at 20 mg/kg or 10 mg/kg. The vehicle control group received PBS. Mouse body weights and tumor volumes were measured twice weekly. [formula] [formula]

Some results are limits rather than exact numbers.

`C#Cc1c(F)ccc2cc(O)cc(-c3ncc4c(N5C[C@H]6CC[C@@H](C5)N6)nc(OC[C@]5(C)CN(C)CC/C5=C\F)nc4c3F)c12` yielded an IC50 in [1] of 4 nM. In assay [2], the “Tumor Volume (Day 20)” value was 77 mm^3.

In the case of `[2H]C([2H])([2H])N1CCC(C(F)F)C(C)(C([2H])([2H])Oc2nc(N3CC4CCC(C3)N4)c3cc(C(F)(F)F)c(-c4cccc5sc(N)c(C#N)c45)c(F)c3n2)C1` (single isomer, unassigned), the “Tumor Volume (Day 21)” value in [3] was determined as 70 mm^3.

Take `CCn1c(-c2cc(N3CCN(C)CC3)cnc2[C@H](C)OC)c2c3cc(ccc31)-c1csc(n1)C[C@H](NC(=O)[C@H]1C[C@@H]1C)C(=O)N1CCC[C@H](N1)C(=O)OCC(C)(C)C2`: the IC50 in assay [4] was over 100 nM; in assay [5], over 100 nM; in [6], under 5 nM; in [7] it was under 5 nM; in assay [8], under 5 nM; in assay [9], 5 to 100 nM. In addition, the IC50 in assay [10] is over 100 nM.

Take `C#Cc1c(F)ccc2cc(O)cc(-c3nc(C#C)c4c(N5C[C@H]6CC[C@@H](C5)N6)nc(OC[C@]5(C)CN(C)CC/C5=C\F)nc4c3F)c12`: in assay [1], the IC50 worked out at 1 nM. In addition, in assay [3], the TGI is 70% and the “Tumor Volume (Day 21)” value is on record as 419 mm^3.

Compound `C#Cc1c(F)ccc2cc(O)cc(-c3nc(OC)c4c(N5C[C@H]6CC[C@@H](C5)N6)nc(OC[C@]5(C)CN(C)CC[C@@H]5C(F)F)nc4c3F)c12` had an IC50 in [1] of 2 nM. Also, the “Tumor Volume (Day 20)” value in [2] worked out at 117 mm^3. In addition, in assay [11], the “TGI (%)” value was -1% and the “Tumor volume (mm^3, Day 21)” value is listed as 1050 mm^3.

For the compound `C#Cc1c(F)ccc2cc(O)cc(-c3nc4c5c(nc(OC[C@@]67CCCN6C[C@H](F)C7)nc5c3F)N3CCCOC[C@H]3CO4)c12`, the concentration for half-maximal inhibition (IC50) in [4] is over 100 nM; in [5] it was over 100 nM; in assay [6], under 5 nM; in assay [7], 5 to 100 nM; in assay [8], 5 to 100 nM; in [9] it was over 100 nM. In assay [10], this compound showed an IC50 of 5 to 100 nM.

Turning to `C#Cc1c(F)ccc2cc(O)cc(-c3nc4c5c(nc(OC[C@]6(C)CN(CC)CC[C@@H]6C(F)F)nc5c3F)N3CCCOC[C@H]3CO4)c12`, the IC50 was under 5 nM in [6], 5 to 100 nM in [7] and under 5 nM in assay [8].

In turn, `C#Cc1c(F)ccc2cc(O)cc(-c3c(F)cc4c(N5CC6CCC(C5)N6)nc(OCC5(C)CN(C)CCC5C(F)F)nc4c3F)c12` (centres unmarked) returned an IC50 in assay [1] of 7 nM. In [2], the “Tumor Volume (Day 20)” value came to 135 mm^3.

For `C#Cc1c(F)ccc2cc(O)cc(-c3nc4c5c(nc(OC[C@@]67CCCN6C[C@H](F)C7)nc5c3F)N3C[C@H]5CC[C@H](N5)[C@H]3[C@H](C)O4)c12`, the IC50 was over 100 nM in assay [4], under 5 nM in [6] and over 100 nM in [10].

As for `C#Cc1c(F)ccc2cc(O)cc(-c3nc4c5c(nc(OC[C@]6(C)CN(CC)CC/C6=C\F)nc5c3F)N3CCCOC[C@H]3CO4)c12`, the IC50 in [6] is under 5 nM; in assay [7] it was 5 to 100 nM; in [8], under 5 nM.

For the compound `CCN1CC/C(=C\F)[C@](C)(COc2nc(N3Cc4c(COC)c(C(=O)N(C)C)nn4CC[C@@H]3C)c3cc(Cl)c(-c4c(F)ccc5sc(N)c(C#N)c45)c(F)c3n2)C1`, the 50% inhibitory concentration (IC50) is over 100 nM in assay [4]; over 100 nM in assay [5]; under 5 nM in [6]; under 5 nM in assay [7]; under 5 nM in assay [8]; over 100 nM in [9]. In assay [10], this compound yielded an IC50 of under 5 nM.

For `CCN1CC/C(=C\F)[C@](C)(COc2nc3c4c(nc(-c5cc(N)cc(Cl)c5C(F)(F)F)c(F)c4n2)OC(C)[C@@H]2[C@@H]4CC[C@H](CN32)N4)C1` (some centres unmarked), the IC50 is over 100 nM in [4], under 5 nM in assay [6] and over 100 nM in assay [10].

Regarding `CCN1CC[C@H](C(F)F)[C@](C)(COc2nc3c4c(nc(-c5cc(N)cc(Cl)c5C(F)(F)F)c(F)c4n2)O[C@@H](C)[C@@H]2[C@@H]4CC[C@H](CN32)N4)C1`, the IC50 is over 100 nM in [4], under 5 nM in assay [6] and over 100 nM in [10].

Regarding `C#Cc1c(F)ccc2cc(O)cc(-c3nc(OC)c4c(N5C[C@H]6CC[C@@H](C5)N6)nc(OC[C@]5(C)CN(C)CC/C5=C\F)nc4c3F)c12`, the IC50 in assay [1] turned out to be 2 nM. The “Tumor Volume (Day 20)” value in [2] came to 113 mm^3.
